Here are results for one substance from PMC5403950, “Mechanism Underlying the Reversal of Drug Resistance in P-Glycoprotein-Expressing Leukemia Cells by Pinoresinol and the Study of a Derivative” (Frontiers in Pharmacology, 2017).

Sequences of proteins named here, by UniProt entry; tags and fusion partners are left off.
UniProt P08183, whole entry: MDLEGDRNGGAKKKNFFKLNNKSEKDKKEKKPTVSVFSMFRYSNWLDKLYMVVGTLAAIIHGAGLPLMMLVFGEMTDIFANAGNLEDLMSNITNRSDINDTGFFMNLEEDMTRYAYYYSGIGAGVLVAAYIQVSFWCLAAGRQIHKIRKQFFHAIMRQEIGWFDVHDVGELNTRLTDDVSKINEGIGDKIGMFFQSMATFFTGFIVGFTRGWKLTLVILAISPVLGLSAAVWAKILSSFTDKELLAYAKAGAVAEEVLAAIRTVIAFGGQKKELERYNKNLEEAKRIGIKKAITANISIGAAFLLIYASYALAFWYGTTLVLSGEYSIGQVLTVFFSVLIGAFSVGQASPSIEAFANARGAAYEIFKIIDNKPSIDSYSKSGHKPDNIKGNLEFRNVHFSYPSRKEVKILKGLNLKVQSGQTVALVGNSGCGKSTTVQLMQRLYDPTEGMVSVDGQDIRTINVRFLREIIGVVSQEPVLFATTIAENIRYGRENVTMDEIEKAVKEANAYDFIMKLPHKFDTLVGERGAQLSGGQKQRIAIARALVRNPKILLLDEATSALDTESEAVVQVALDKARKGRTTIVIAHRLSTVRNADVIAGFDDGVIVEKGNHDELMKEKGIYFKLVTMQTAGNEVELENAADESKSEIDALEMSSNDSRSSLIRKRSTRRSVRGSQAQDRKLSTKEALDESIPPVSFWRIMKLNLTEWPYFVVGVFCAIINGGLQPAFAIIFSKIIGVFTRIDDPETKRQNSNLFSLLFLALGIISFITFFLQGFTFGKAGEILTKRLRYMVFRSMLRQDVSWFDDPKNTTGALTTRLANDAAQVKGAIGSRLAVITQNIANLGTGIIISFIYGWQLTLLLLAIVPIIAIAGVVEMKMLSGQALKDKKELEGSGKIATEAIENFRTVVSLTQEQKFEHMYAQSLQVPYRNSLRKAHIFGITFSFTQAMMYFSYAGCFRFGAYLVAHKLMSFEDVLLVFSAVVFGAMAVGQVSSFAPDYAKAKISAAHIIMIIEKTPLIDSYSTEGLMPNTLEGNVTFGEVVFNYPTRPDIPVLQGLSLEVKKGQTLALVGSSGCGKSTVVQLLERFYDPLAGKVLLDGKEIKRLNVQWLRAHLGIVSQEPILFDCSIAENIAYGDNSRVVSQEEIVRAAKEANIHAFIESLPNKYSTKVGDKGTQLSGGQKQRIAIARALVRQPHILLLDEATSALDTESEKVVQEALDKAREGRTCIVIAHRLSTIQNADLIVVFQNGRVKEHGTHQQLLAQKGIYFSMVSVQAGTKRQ

Where two headings read alike, the source gives them in different places.

The subject of data set [1] is peripheral blood mononuclear cells (PBMC). The experiment in a line: Cytotoxicity on peripheral blood mononuclear cells (MTT). Format: cell-based, human. As to conditions: PHA 10 μg mL−1, 48 h, confidence limits in brackets. Here is the method: The cytotoxicity of 14 and 16 on peripheral blood mononuclear cells (PBMC) was evaluated by MTT assay (Joray et al., [2015]). PBMC were collected from fresh heparinized blood and separated by density gradient centrifugation (Ficoll®) as described by Rennó et al. ([2008]). As the current study required samples from healthy human volunteer donors, ethical approval was provided by the Catholic University of Córdoba Research Ethics Board. Signed informed consents were obtained from donors. […] Absorbance (Abs) and percentage of cytotoxicity were determined as described above and the IC50 values were calculated. The experiment was carried out in two separate stages.

Data set [2] has as its target P-gp (Homo sapiens, UniProt P08183). The note with it: read-out: IC50 of antagonism of verapamil-stimulated ATPase activity, verapamil 40 μM as activator, confidence limits in brackets.

Broadly, the IC50 is the concentration at which inhibition is half-maximal. Take (±)-pinoresinol [Compound 14]: the IC50 in data set [1] was 216 µM; in data set [2] it was 20.9 µM; in data set [2] (listed as pinoresinol), 20.9 µM.
